The conditions of data set [1]: sum of five 0/1 risk factors, 0 (lack of risk) to 5 (very high multiple risk). From the text: The last column corresponds to a risk level score for the safety of these molecules for use in oils such as turbine oils and their alleged cabin toxicity. […] A 0 value indicates a lack of risk, and a 5 value indicates a very high multiple risk. For each risk, a factor 0 or 1 is assigned based on whether the value is above or below a threshold.

Chains of the proteins cited; added tags and fusions are not shown. Residues count along the entry.
UniProt P22303, 32-617 isoform P22303-2 limits assumed: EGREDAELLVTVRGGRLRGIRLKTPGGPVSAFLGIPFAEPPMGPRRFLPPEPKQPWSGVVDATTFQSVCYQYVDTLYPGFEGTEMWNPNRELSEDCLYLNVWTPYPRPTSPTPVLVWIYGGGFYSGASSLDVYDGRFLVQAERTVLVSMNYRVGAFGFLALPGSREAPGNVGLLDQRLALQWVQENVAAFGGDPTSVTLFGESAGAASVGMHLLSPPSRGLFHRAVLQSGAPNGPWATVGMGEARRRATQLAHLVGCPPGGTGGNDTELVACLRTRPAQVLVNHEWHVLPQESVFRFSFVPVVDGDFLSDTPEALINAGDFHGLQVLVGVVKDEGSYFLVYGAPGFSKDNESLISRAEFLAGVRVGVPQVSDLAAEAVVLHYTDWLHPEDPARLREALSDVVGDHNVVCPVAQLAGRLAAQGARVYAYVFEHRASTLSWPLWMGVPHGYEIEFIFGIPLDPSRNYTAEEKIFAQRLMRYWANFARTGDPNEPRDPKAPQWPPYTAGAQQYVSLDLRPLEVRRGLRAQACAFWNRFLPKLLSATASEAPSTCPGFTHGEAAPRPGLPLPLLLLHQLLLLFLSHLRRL
UniProt P81908, whole entry: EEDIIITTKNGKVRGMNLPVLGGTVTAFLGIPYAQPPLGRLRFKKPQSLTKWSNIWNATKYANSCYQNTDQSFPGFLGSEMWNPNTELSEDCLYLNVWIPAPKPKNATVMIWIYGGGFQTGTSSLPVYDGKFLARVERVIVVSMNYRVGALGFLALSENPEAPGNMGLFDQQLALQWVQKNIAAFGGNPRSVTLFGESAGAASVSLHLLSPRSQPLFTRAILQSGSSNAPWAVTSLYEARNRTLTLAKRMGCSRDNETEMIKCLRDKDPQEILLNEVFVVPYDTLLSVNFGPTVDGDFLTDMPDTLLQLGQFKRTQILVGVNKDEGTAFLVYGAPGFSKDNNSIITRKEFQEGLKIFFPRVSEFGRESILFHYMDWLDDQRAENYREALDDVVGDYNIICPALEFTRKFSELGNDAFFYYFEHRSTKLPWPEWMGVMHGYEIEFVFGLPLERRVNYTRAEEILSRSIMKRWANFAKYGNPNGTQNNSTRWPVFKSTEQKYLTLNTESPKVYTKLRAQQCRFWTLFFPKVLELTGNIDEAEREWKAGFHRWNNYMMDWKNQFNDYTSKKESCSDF

Data set [2] addresses T1, human erythrocyte AChE (hAChE) (Homo sapiens, UniProt P22303).
T1 construct: The human erythrocyte AChE (hAChE, aqueous buffer solution); purchased Sigma Aldrich; host or cells: human erythrocytes (natural source)
It is filed as biochemical. On the procedure:
(§1) In the extent that the toxic activity of TCP especially involves its action on cholinesterases, the effect of the compounds used according to the invention, as well as comparative compounds, on two cholinesterases was studied. The required concentration values of each compound to inhibit 50% of the activity of two cholinesterases were measured.
(§2) The acetylthiocholine and butyrylthiocholine iodide, and 5,5-dithiobis (2-nitrobenzoic) acid (DTNB) were purchased from Sigma Aldrich (Steinheim, Germany).
(§3) In the procedure, 100 μL of 0.3 mM DTNB dissolved in phosphate buffer, pH 7.4, were added in 96-well plates, followed by 50 μL solution of the test compound and 50 μL enzyme (final 0.05 U). After 5 minutes of pre-incubation at 25° C., the reaction was initiated by injecting 50 μL of 0.1 mM acetyl or butyryl thiocholine iodide solution. The acetyl or butyryl thiocholine hydrolysis was followed by the formation of yellow 5-thio 2-nitrobenzoate anion as the product of the reaction of DTNB with the thiocholine released by the enzymatic hydrolysis of the acetyl or butyryl thiocholine, at a wavelength of 412 nm, using a microplate reader (Synergy 2, Biotek, Colmar, France). The compounds to be tested were dissolved to 5×10^−3M in analytical grade DMSO. Donepezil or tacrine were used as reference standards. The absorption increase rate at 412 nm was determined 4 minutes after the addition of the acetyl or butyryl thiocholine iodide solution. The tests were carried out with a blank containing all the compounds except the acetyl or butyryl thiocholine in order to take into account non-enzymatic reactions.
(§4) The percentage of inhibition due to the presence of the test compounds was calculated using the following expression: […]
(§5) wherein vi is the rate calculated in the presence of the inhibitor, and v0 is the enzymatic activity.
(§6) All the experiments were carried out in n=3.

The target in data set [3] is T2, BuChE from equine serum (eqBuChE) (Equus caballus, UniProt P81908).
T2 construct: The BuChE freeze-dried from equine serum (eqBuChE, Sigma Aldrich); purchased Sigma Aldrich; host or cells: equine serum (natural source)
It is filed as biochemical. On the procedure: as §1, §2, §3, §4, §5, §6

For data set [4] the following is noted: European Chemicals Agency website; cited from earlier work.
The mark [5] stands for this setting: human erythrocyte AChE, Ellman method, 5 min pre-incubation at 25° C., n=3.
Where [6] appears, read: equine serum BuChE, Ellman method, 5 min pre-incubation at 25° C., n=3.

Where two headings read alike, the source gives them in different places.

In the case of “2-octyl 1-dodecyl diphenylphosphate [Compound 3]”, in data set [1], the Risk level is reported as 0. Further, the “IC50 hAChE” value in data set [2] (setting [5]) was found to be 22 µg/mL. For the same substance, the “IC50 eqBuChE” value in data set [3] (setting [6]) turned out to be 82 µg/mL.

“Tri(4-isopropylbenzoate)phosphate [Compound G]”: in data set [2], the “IC50 hAChE” value was 15.8 µg/mL. The “IC50 eqBuChE” value in data set [3] is 145.5 µg/mL.

For “isododecyl diphenylphosphate [Compound 4]”, in data set [2] (setting [5]), the “IC50 hAChE” value came to 16 µg/mL. Moreover, the “IC50 eqBuChE” value in data set [3] (setting [6]) came to 34 µg/mL.

On to “isohexadecyl diphenylphosphate [Compound 5]”, for which, in data set [3] (setting [6]), the “IC50 eqBuChE” value stood at 27 µg/mL.

For the substance isononyl diphenylphosphate [Compound Q], in data set [2] (setting [5]), the “IC50 hAChE” value worked out at 18.4 µg/mL. Besides, in data set [3] (setting [6]), the “IC50 eqBuChE” value was 1.6 µg/mL.

For “n-dodecyl diphenylphosphate [Compound 2]”, the Risk level in data set [1] amounted to 0. In addition, the “ECHA's official data” value in data set [4] was “No CMR, no acute toxicity”. Further, the “IC50 hAChE” value in data set [2] (setting [5]) worked out at 28 µg/mL. Further, the “IC50 eqBuChE” value in data set [3] (setting [6]) came out at 78 µg/mL.

(Values after patent publication US20230183592A1, “SPECIFIC ORGANOPHOSPHORUS COMPOUNDS AS NON-NEUROTOXIC ANTI-WEAR AGENTS” (priority 2020, published 2023).)
